Read-outs that look alike come from different tables or passages of the source.

Amino acid sequences for entries named in this document (tags omitted). Residues count along the entry.
UniProt P41279, 30-397 limits assumed: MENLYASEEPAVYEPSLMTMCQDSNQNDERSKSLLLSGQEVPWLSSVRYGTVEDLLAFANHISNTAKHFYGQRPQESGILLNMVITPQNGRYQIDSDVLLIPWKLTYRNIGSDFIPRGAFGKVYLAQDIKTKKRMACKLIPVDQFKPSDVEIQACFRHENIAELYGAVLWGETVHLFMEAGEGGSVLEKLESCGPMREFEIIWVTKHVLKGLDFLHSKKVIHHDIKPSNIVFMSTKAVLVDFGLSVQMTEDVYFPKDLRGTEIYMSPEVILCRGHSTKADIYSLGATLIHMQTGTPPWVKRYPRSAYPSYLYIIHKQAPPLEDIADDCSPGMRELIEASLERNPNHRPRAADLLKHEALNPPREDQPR

This passage reports IC50 and EC50 results from US10316017B2, “COT modulators and methods of use thereof” (Gilead Sciences, Inc., priority 2015, dated 2019).

Experiment [1] deals with human Cot catalytic domain (30-397 amino acids) (Homo sapiens, UniProt P41279). Nature of the experiment: High Throughput Cot Biochemical Assay (KinEASE TR-FRET). The settings on record: read-out: IC50 HTRF, 400 μM ATP. (In TR-FRET formats the signal depends on donor and acceptor labels being close together.)
In experiment [2] the test system is TNFα production in LPS-stimulated human monocytes. Put plainly: Cot Monocyte TNFα Cell Based Assay. As to conditions: read-out: EC50 TNF.
[3] abbreviates: Cot KinEASE TR-FRET (HTRF) biochemical assay.
Setting [4] is: TNFα in LPS-stimulated human monocytes.
The mark [5] stands for this setting: LPS-stimulated human monocytes, TNFα TR-FRET.

What is called IC50 is the concentration that inhibits the measured activity by half. On to `N#Cc1cnc2c(Cl)cc(NC(c3ccc(F)cc3)c3cn([C@@H]4CCN(C(=O)OCc5ccccc5)C4)nn3)cc2c1Nc1ccc(F)c(Cl)c1` (some centres unmarked), for which the half-maximal inhibitory concentration (IC50) in experiment [1] (Cot KinEASE TR-FRET) is 364 nM.
Usually EC50 stands for the concentration that produces a half-maximal response. `[2H][C@](Nc1cc(Cl)c2ncc(C#N)c(NC3(C(C)(C)C)CC3)c2c1)(c1ccc(F)cc1)c1cn(C2CC2)nn1`: the IC50 in experiment [1] (setting [3]) amounted to 373 nM. The EC50 in experiment [2] (setting [4]) amounted to 1610 nM.
For `[2H][C@](Nc1cc(Cl)c2ncc(C#N)c(NCC(C)(C)C)c2c1)(c1cn(C2COC2)nn1)c1ccccc1Cl`, the IC50 in experiment [1] (setting [3]) was 11 nM. Besides, the 50% effective concentration (EC50) in experiment [2] (setting [4]) was determined as 279 nM.
For `[2H][C@](Nc1cc(Cl)c2ncc(C#N)c(NCC(C)(C)C)c2c1)(c1cn(CC(O)C(F)(F)F)nn1)c1ccccc1Cl` (some centres unmarked), in that order: 50 nM and 495 nM.
As for `[2H][C@@](Nc1cc(Cl)c2ncc(C#N)c(NC(CCC#N)c3ccccc3)c2c1)(c1cn(C2CC2)nn1)c1ccccc1Cl` (some centres unmarked), in experiment [2] (setting [4]), the 50% effective concentration (EC50) came to 86 nM.
On the same count and under the same terms, next, `[2H][C@](Nc1cc(Cl)c2ncc(C#N)c(N[C@@H](c3ccccc3)[C@H]3C[C@@H]3C#N)c2c1)(c1ccc(F)cc1)c1cn(C2CC2)nn1`: 125 nM; `[2H][C@](Nc1cc(Cl)c2ncc(C#N)c(N[C@H](CCC#N)c3ccccc3)c2c1)(c1cccc(C#N)c1)c1cn(C2CC2)nn1`: 13 nM.
Take `[2H][C@@](Nc1cc(Cl)c2ncc(C#N)c(NCC34CC(C3)C4)c2c1)(c1cccc(C#N)c1)c1cn(C2CC2)nn1`: the IC50 in experiment [1] (Cot KinEASE TR-FRET) came to 7 nM. Further, the EC50 in experiment [2] (setting [5]) is 346 nM.
With `[2H][C@](Nc1cc(Cl)c2ncc(C#N)c(N[C@H](CC)c3ccccc3)c2c1)(c1ccccc1)c1cn(C2CC2)nn1`, in experiment [2] (setting [4]), the EC50 came out at 158 nM.
As for `[2H][C@@](Nc1cc(Cl)c2ncc(C#N)c(NCC(C)(C)C)c2c1)(c1cccc(C#N)c1)c1cn(C2(C#N)CC2)nn1`, in experiment [2] (setting [4]), the concentration giving a half-maximal response (EC50) amounted to 54 nM.
On to `[2H][C@@](Nc1cc(C#N)c2ncc(C#N)c(N[C@H](CC)c3ccccc3)c2c1)(c1cn(C2(C(F)(F)F)CC2)nn1)c1ccccc1Cl`, for which the IC50 in experiment [1] (setting [3]) stood at 26 nM. Further, in experiment [2] (setting [4]), the concentration giving a half-maximal response (EC50) worked out at 435 nM.
With `[2H][C@](Nc1cc(Cl)c2ncc(C#N)c(NCC(C)(C)F)c2c1)(c1ccc(F)cc1)c1cn(C2CC2)nn1`, the IC50 in experiment [1] (setting [3]) came out at 52 nM. For the same compound, the EC50 in experiment [2] (setting [4]) was determined as 536 nM.
As for `[2H][C@](Nc1cc(Cl)c2ncc(C#N)c(Nc3cnc(F)c(F)c3)c2c1)(c1ccc(F)cc1)c1cn(CC(F)F)nn1`, the EC50 in experiment [2] (setting [4]) came to 653 nM.
Take `[2H][C@@](Nc1cc(F)c2ncc(C#N)c(NCC(C)(C)C)c2c1)(c1ccc(F)cc1)c1cn(C2CC2)nn1`: in experiment [2] (setting [4]), the EC50 was 117 nM.
With `[2H][C@](Nc1cc(Cl)c2ncc(C#N)c(NCCC#N)c2c1)(c1ccc(F)cc1)c1cn(C2CC2)nn1`, the IC50 in experiment [1] (setting [3]) amounted to 476 nM. The EC50 in experiment [2] (setting [4]) is 4160 nM.
For `[2H][C@](Nc1cc(Cl)c2ncc(C#N)c(NCCc3ncc[nH]3)c2c1)(c1ccc(F)cc1)c1cn(C2CC2)nn1`, in that order: 3240 nM and above 10000 nM.
Turning to `[2H][C@](Nc1cc(Cl)c2ncc(C#N)c(NCC(C)(C)C)c2c1)(c1cn(C2(c3ccccn3)CC2)nn1)c1ccccc1Cl`, the EC50 in experiment [2] (setting [5]) was found to be 84 nM.
Regarding `[2H][C@](Nc1cc(Cl)c2ncc(C#N)c(N[C@H]3CCOCC3(C)C)c2c1)(c1ccc(F)cc1)c1cn(C2CC2)nn1`, the 50% effective concentration (EC50) in experiment [2] (setting [4]) was determined as 43 nM.
`[2H][C@](Nc1cc(Cl)c2ncc(C#N)c(NC3(C)CC3)c2c1)(c1cn(C2CC2)nn1)c1ccccc1Cl`: the half-inhibitory concentration (IC50) in experiment [1] (setting [3]) is 431 nM. Moreover, the half-maximal effective concentration (EC50) in experiment [2] (setting [4]) was found to be 4390 nM.
For the compound `[2H][C@](Nc1cc(Cl)c2ncc(C#N)c(NCC3(C)CCC3)c2c1)(c1cn(C2CC2)nn1)c1ccccc1Cl`, the half-inhibitory concentration (IC50) in experiment [1] (setting [3]) is 28 nM. Moreover, the EC50 in experiment [2] (setting [4]) is 469 nM.
The corresponding values for `[2H][C@](Nc1cc(Cl)c2ncc(C#N)c(N[C@H](CS(C)(=O)=O)c3ccccc3)c2c1)(c1ccc(F)cc1)c1cn(C2CC2)nn1` are 20 nM and 360 nM.
The corresponding values for `[2H][C@](Nc1cc(Cl)c2ncc(C#N)c(NCC(C)(C)C)c2c1)(c1cn([C@@H]2C[C@@H]2C(F)(F)F)nn1)c1ccccc1Cl` are 128 nM and above 1000 nM.
The corresponding values for `[2H][C@](Nc1cc(Cl)c2ncc(C#N)c(NCC(C)(C)C)c2c1)(c1cn([C@@H](C)CF)nn1)c1ccccc1Cl` are 19 nM and 345 nM.
On to `[2H][C@](Nc1cc(Cl)c2ncc(C#N)c(NCC(C)(C)C)c2c1)(c1cn(C2(C#N)CC2)nn1)c1ccccc1Cl`, for which the IC50 in experiment [1] (setting [3]) was found to be 16 nM. Moreover, the 50% effective concentration (EC50) in experiment [2] (setting [4]) came to 127 nM.
